Earlier results in patent US20190091218A1 (priority 2016, published 2019).
“Also recorded” adds a separate entry of the source.

Columns and labels:
[1] = in vivo
[2] = in vivo, po

| SMILES | time to reach steady state level [1] | drug interactions [2] | linearity of pharmacokinetics [2] |
| --- | --- | --- | --- |
| O=C(O)COCCN1CCN([C@H](c2ccccc2)c2ccc(Cl)cc2)CC1 [levocetirizine] | less than two days; also recorded: within two days |  |  |
| CC(C)(O)c1ccccc1CC[C@@H](SCC1(CC(=O)O)CC1)c1cccc(/C=C/c2ccc3ccc(Cl)cc3n2)c1 [montelukast] |  | no drug interactions | nearly linear |
